Assay results from article PMC7613929 (Nature microbiology, 2022).

By UniProt entry, the sequences of proteins in these tests, tags left out. Residues count along the entry.
UniProt P0ABH0, 1-405: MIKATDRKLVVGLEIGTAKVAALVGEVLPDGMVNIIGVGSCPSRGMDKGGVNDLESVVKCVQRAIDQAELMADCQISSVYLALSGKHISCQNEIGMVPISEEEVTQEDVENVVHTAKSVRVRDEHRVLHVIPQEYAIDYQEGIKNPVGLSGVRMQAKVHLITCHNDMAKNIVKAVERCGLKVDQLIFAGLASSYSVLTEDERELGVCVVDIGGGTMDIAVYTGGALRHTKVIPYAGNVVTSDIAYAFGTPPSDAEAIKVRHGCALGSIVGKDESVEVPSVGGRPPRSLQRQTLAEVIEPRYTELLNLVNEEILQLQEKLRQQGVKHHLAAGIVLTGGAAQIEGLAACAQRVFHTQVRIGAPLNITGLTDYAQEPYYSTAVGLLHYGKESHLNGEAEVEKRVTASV

Target: T1, FtsA (Escherichia coli, UniProt P0ABH0)
T1 construct: made in house; host or cells: E. coli C41(DE3)
Assay: SPR, EcFtsN^1-32 truncations and mutations binding to immobilised FtsA
Settings: SPR equilibrium response; peptide 1:2 dilution series from 20 μM; mean ± SEM (n ≥ 2 for each construct); asterisk: maximum response fixed during fitting, approximate values; ND: not determinable; read-out: SPR K^eqd
Description: SPR was performed using a Biacore T200 using CM5-sensor chips (Cytiva). Reference control and analyte channels were equilibrated in binding buffer. […] After reference and buffer signal correction, sensogram data were fitted using Prism 8.0 (GraphPad). Equilibrium response (Req) data were fitted to a single-site interaction model to determine Kd: (1) Req=(CRmax/C+Kd)+B, where C is the analyte concentration and Rmax is the maximum response at saturation and B is the background resonance.

`CSCC[C@H](N)C(=O)N[C@@H](C)C(=O)N[C@@H](CCC(N)=O)C(=O)N[C@@H](CCCNC(=N)N)C(=O)N[C@@H](CC(=O)O)C(=O)N[C@@H](Cc1ccc(O)cc1)C(=O)N[C@H](C(=O)N[C@@H](C)C(=O)N[C@@H](C)C(=O)N[C@@H](CO)C(=O)N[C@@H](CCC(N)=O)C(=O)N1CCC[C@H]1C(=O)N[C@@H](C)C(=O)N1CCC[C@H]1C(=O)N[C@@H](CO)C(=O)N[C@@H](CCCNC(=N)N)C(=O)N[C@@H](CCCNC(=N)N)C(=O)N[C@@H](CCCCN)C(=O)N[C@@H](CCCCN)C(=O)N[C@@H](CO)C(=O)N[C@H](C(=O)N[C@@H](CO)C(=O)N[C@@H](CCCNC(=N)N)C(=O)N[C@@H](CCCCN)C(=O)N[C@@H](CCCCN)C(=O)N[C@@H](CCC(N)=O)C(=O)N[C@@H](CCCNC(=N)N)C(=O)N[C@@H](CC(N)=O)C(=O)N[C@@H](CC(C)C)C(=O)N1CCC[C@H]1C(=O)N[C@@H](C)C(=O)N[C@H](C(=O)O)C(C)C)[C@@H](C)O)C(C)C` [EcFtsN^1-32, ΔRK1] was tested, and the Kd was 11.6 ± 0.8 µM.
